From patent US20110191897A1, “Plants Tolerant to HPPD Inhibitor Herbicides” (Bayer CropScience AG, priority 2009, published 2011)

The chains behind the UniProt entries cited, without tags or fusion partners. Where a name states a change or a piece, a line headed by the entry shows the natural chain unless it says otherwise.
UniProt A8R3H6, entry or part of it: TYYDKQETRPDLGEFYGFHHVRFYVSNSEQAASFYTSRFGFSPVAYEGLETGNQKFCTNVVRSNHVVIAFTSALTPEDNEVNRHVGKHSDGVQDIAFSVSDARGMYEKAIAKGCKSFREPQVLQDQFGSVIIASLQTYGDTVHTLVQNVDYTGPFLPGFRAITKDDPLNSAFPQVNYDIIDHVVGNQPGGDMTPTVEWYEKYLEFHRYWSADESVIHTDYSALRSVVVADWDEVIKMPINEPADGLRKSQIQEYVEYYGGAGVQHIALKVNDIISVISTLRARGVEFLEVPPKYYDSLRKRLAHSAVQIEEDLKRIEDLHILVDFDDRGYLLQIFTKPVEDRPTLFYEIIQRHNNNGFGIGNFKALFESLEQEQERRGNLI
UniProt P93836: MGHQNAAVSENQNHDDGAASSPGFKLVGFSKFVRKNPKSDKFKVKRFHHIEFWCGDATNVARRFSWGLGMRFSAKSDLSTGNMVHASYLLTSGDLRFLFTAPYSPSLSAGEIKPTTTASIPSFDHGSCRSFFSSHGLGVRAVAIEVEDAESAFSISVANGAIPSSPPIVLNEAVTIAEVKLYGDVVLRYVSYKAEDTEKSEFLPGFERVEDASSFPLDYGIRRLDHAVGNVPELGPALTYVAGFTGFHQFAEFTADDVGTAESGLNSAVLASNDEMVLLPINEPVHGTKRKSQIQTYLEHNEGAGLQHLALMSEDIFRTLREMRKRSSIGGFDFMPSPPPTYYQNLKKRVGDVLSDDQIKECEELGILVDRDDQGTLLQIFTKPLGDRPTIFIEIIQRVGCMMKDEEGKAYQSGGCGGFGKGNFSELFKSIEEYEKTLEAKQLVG

Columns and labels:
[1] = target: T1, Blepharisma japonicum HPPD (SEQ ID No. 5) (Blepharisma japonicum, UniProt A8R3H6); assay: biochemical; conditions: for inhibition at 5 µM: read-out: percentage of inhibition
[2] = target: T2, Arabidopsis thaliana HPPD (SEQ ID No. 10) (Arabidopsis thaliana, UniProt P93836); assay: Spectrophotometric HPPD activity assay in presence of HPPD inhibitors; type: biochemical
T2 construct: made in house; host or cells: E. coli K-12 BL21 (pQE30-AtHPPD)
T2 sequence (P93836 with tags, fused parts or gaps): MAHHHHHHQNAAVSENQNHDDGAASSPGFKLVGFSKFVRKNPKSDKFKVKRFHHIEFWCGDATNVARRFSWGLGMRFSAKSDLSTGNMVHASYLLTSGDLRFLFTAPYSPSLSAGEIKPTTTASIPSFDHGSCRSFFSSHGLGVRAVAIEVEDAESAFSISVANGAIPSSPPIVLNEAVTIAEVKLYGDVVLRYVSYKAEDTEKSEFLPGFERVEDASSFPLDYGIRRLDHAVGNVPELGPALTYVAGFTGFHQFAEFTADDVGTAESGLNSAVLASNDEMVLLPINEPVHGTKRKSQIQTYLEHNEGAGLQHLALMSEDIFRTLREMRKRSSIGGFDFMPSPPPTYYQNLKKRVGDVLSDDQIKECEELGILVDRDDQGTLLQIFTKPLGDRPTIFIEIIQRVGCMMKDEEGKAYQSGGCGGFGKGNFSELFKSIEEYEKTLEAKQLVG

[3] = target: T1, Blepharisma japonicum HPPD (SEQ ID No. 5); assay: HPLC assay of HPPD in vitro kinetic properties; type: biochemical
Description: (§1) Km, Vmax, and kcat values for different HPPD enzyme preparations and Ki, K1=Kon, and K−1=Koff for different HPPD inhibitors were determined using a HPLC assay for measurements of HPPD activity. […] All assays were started by the addition of HPPD enzyme to the assay mixture and stopped at a series of times between 0 and 240 s by addition of 200 μl of the reaction mixture to reaction assay tubes containing 20 μl 10% perchloric acid. Precipitated protein was pelleted by a 5 minute centrifugation at 10,000 g. 100 μl of the supernatant were loaded onto a 250×4 mm Knauer (Berlin, Germany) Eurospher 100-5 C18-column equilibrated with 10% methanol, 0.1% trifluoroacetic acid (buffer A). […] A standard set of concentrations of HGA were used to provide a standard curve in order to calibrate the 292 nm absorbance of the HGA peak versus HGA concentration.
(§2) For Km and Vmax value determinations the initial rates of the HPPD reaction at different substrate concentrations were determined from plots of HGA formed versus time and fitted to the Michaelis-Menten equation for unireactant enzymes using the ID Business Solutions Ltd. (www.idbs.com) XLfit software suite. For the determination of Ki, K1=Kon, and Ki=Koff values the time-courses of the HPPD reaction at different inhibitor concentrations were fitted to the equations for Mechanism A, competitive inhibition, for tight-binding inhibitors (Cha, S. (1975) Tight-binding inhibitors—I. Kinetic behaviour. Biochemical Pharmacology 24, 2177-2185) using the ID Business Solutions Ltd. XLfit software suite

[4] = target: T2, Arabidopsis thaliana HPPD (SEQ ID No. 10); assay: HPLC assay of HPPD in vitro kinetic properties; type: biochemical
Description: as §1, §2

SMILES | IC50 [1] | inhibition at 5 µM [1] | IC50 [2] | kon ([3]; read-out: k1 (Kon, association rate constant)) | koff ([3]; read-out: k−1 (Koff, dissociation rate constant)) | Ki [4]
CS(=O)(=O)c1ccc(C(=O)C2C(=O)CCCC2=O)c([N+](=O)[O-])c1 [Mesotrione, 2-[4-(methylsulfonyl)-2-nitrobenzoyl]-1,3-cyclohexanedione] | 63.1 µM | 0% |  |  |  | 
CS(=O)(=O)c1ccc(C(=O)C2C(=O)CCCC2=O)c(Cl)c1 [Sulcotrione, 2-[2-chloro-4-(methylsulfonyl)benzoyl]-1,3-cyclohexanedione] | 15.8 µM | 7% |  |  |  | 
CS(=O)(=O)c1ccc(C(=O)C2C(=O)CCCC2=O)c(Cl)c1COCC1CCCO1 (stereo not drawn) [Tefuryltrione, 2-[2-chloro-4-(methylsulfonyl)-3-[[(tetrahydro-2-furanyl)methoxy]methyl]benzoyl]-1,3-cyclohexanedione] |  |  | < 2.51 µM |  |  | 
CS(=O)(=O)c1cc(C(F)(F)F)ccc1C(=O)C(C#N)C(=O)C1CC1 (stereo not drawn) [Diketonitrile, 2-cyano-3-cyclopropyl-1-(2-methylsulphonyl-4-trifluoromethylphenyl)-propane-1,3-dione] |  |  | < 2.51 µM | 980 M⁻¹ s⁻¹ | 0.0065 s⁻¹ | 0.018 µM
